In PubChem BioAssay AID493244 (The Scripps Research Institute Molecular Screening Center, 2011) one finds inhibition data, which are given here for two molecules.

The entries are a selection whose mix differs from that of the whole data set. Activity calls are given as the source filed them.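 How the source made its calls: active means inhibition above the mean inhibition of all tested compounds plus 3 SD (cut at about 17% in these data); inactive means the rest.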

The test deals with Troponin I, cardiac muscle (Homo sapiens) + Troponin T, cardiac muscle (Homo sapiens) + Troponin C, slow skeletal and cardiac muscles (Homo sapiens) (UniProt P19429+P45379+P63316). Nature of the test: calcium desensitizers of cardiac thin filaments – biochemical, IANBD-TnC fluorescence, EC70 calcium, primary screen (AID 493244).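 Further: assay run at fixed EC70 calcium of 1.6 mM.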 Particulars: IANBD-labeled cardiac RTF, Ca2+ fluorescence; at 7.15 µM; stronger effect = higher value.
Consider `CCC(=O)N(c1ccccc1)C1(COC)CCN(CCn2nnn(CC)c2=O)CC1`, for which the inhibition – broadly, the drop in the measured response relative to a control, in per cent – is inactive: -4.11%.
For the molecule `CCC(=O)N(c1ccccc1)C1(COC)CCN(CCc2cccs2)CC1`, the inhibition is inactive: -4.37%.
